Here are results for two compounds from PubChem BioAssay AID651687 (Broad Institute, 2012).

Each structure is given as a SMILES string. Only a part is listed here, and it is no random draw. The source made the active and inactive calls.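 The calls were made as follows: active = every replicate shows inhibition of at least 40%; inconclusive = mean inhibition at least 40% but some replicate below; inactive = the rest.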

The assay is described as follows: compounds lowering acetylated PGC1a in cells – cell-based, U2OS, AlphaScreen, inhibitor mode, primary screen (AID 651687).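 Also: 0% = neutral control wells and 100% = positive control wells.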 The settings on record: U2OS PGC1a acetylation, AlphaScreen anti-acetyl-lysine; at 15.6 µM; active compounds read high; with virally co-expressed GCN5 acetyltransferase. (In general: Bead proximity is the source of the signal in Alpha formats.)
What is called inhibition is the percentage by which the read-out fell short of the control. Turning to `CCC(=O)N(c1ccccc1)C1(COC)CCN(CCn2nnn(CC)c2=O)CC1`, the inhibition is inactive: 2.65%.
For the compound `CCC(=O)N(c1ccccc1)C1(COC)CCN(CCc2cccs2)CC1`, the inhibition was inactive: 8.47%.
